Where “and” joins values, the source holds several entries; their conditions need not be identical. Equal values may be shown once. The list shows a part of the results, in another mix than the full data. Inconclusive results are not listed. Calls of active or inactive are those of the source. The call rests on the fitted dose curve; in most records, active means well fitted inhibition curve with a large enough effect in the signal ratio in the repeat runs (not every such curve was filed as active); inconclusive means weak or mixed curves, or effect the other way; inactive means flat fitted curve, though single readings scatter; the % refers to the signal ratio.
Assay: cAMP Responsive Elements (CRE) small molecule antagonists, cell-based qHTS assay (AID 1963591)
Settings: CRE-bla HEK293T, beta-lactamase FRET ratio; at 92.4 µM (top of the series) unless noted
Description: U.S. Tox21 Program National Center for Advancing Translational Sciences [NCATS] Division of Preclinical Innovation [DPI] U.S. Environmental Protection Agency [EPA] National Institutes of Environmental Health Sciences [NIEHS] National Toxicology Program [NTP] U.S. Food and Drug Administration [FDA] Tox21 Assay Overview: CREB (cyclic-AMP Responsive Element Binding Protein) is a cellular transcription factor. It binds to certain DNA sequences called cAMP Responsive Elements (CRE) and regulates the transcription of the genes. […] This cell line can be used to find agonists/antagonists of the cyclic AMP signaling pathway. The activation of the report gene under culture conditions can be detected by fluorescence intensity. This cell line has been used to screen the Tox21 10K compound library to […].
Tox21 Assay Protocol Summary: CRE-bla Hek 293T cells were suspended in assay medium (DMEM containing 10% dialyzed FBS, 0.1 mM NEAA, 1 mM sodium pyruvate and 25 mM HEPES) and dispensed at 2,000 cells/4 uL /well into 1536-well black wall/clear bottom plates using a Multidrop Combi (ThermoFisher Scientific, Waltham, MA) dispenser. After the assay plates were incubated at 37 C/5% CO2 for 18 hrs, 23 nL of compounds dissolved in DMSO, positive controls or DMSO only was transferred to the assay plate by a pintool workstation (Kalypsys, San Diego, CA), followed by addition of 1 […] uL of 1.25uM NKH477 (0.25 uM as final concentration) in assay medium using a Flying Reagent Dispenser (Aurora Discovery, San Diego, CA). The plates were incubated at 37 C and 5% CO2 for 3 hrs. Then 1 uL of LiveBLAzer B/G FRET substrate (Invitrogen, Carlsbad, CA) was added to each well using Bioraptr Flying Reagent Dispenser (FRD, Aurora Discovery, San Diego, CA). The plates were incubated at room temperature for 2 h.
On the % scale 0 is the no-effect control and ±100 the full control effect.

SMILES	activity change, negative = inhibition
CC(C)CCCCCCCOP(OCCCCCCCC(C)C)Oc1ccccc1	inactive: -16%
O=[P+](Oc1ccccc1)Oc1ccccc1	inactive: -0.406%
O=[N+]([O-])c1ccc([N+](=O)[O-])cc1	inactive: -0.668%
O=[p+]1oc2ccccc2c2ccccc21 (stereo unspecified)	inactive: -0.84%
O=C(Cl)Oc1ccccc1	inactive: -1.7%
CN(N=O)C(=N)N[N+](=O)[O-]	inactive: -3.44%
CCOC(=O)Cl	inactive: 1.42%
COP(=S)(Cl)OC	inactive: -8.65%
COC(=O)Cl	inactive: 1.32%
O=[N+]([O-])c1ccc(S(=O)(=O)O)c([N+](=O)[O-])c1	inactive: 2.49%
O=P(Cl)(Oc1ccccc1)Oc1ccccc1	inactive: -1.05%
CCOP(=S)(CC)Sc1ccccc1 (stereo unspecified)	inactive: -10.9%
CCCCO[P+](=O)OCCCC	inactive: 5.72% and inactive: 1.52%
CCC(C)(OOC(C)(C)C)OOC(C)(C)C	inactive: -5.66% [at 18.9 µM]
CN(C(=O)Cc1ccc(Cl)c(Cl)c1)[C@H]1CC[C@@]2(CCCO2)C[C@@H]1N1CCCC1	inactive: -3.32% [at 42.4 µM]
CCCCC(CC)CO[P+](=O)OCC(CC)CCCC (stereo unspecified)	inactive: 2.99%
CCCCOP(OCCCC)OCCCC	inactive: -0.884%
O=P(Cl)(Cl)c1ccccc1	inactive: -0.101%
CC(C)OP(=S)(OC(C)C)SCCNS(=O)(=O)c1ccccc1	inactive: -15.6%
CN(C(=O)Cc1cccc2occc12)[C@H]1CC[C@@]2(CCCO2)C[C@@H]1N1CCCC1	inactive: -0.558%
CCNC(C)Cc1ccc2c(c1)OCO2 (stereo unspecified)	inactive: 1.06%

Reference: PubChem BioAssay (Tox21)
